# Values quoted from earlier work in US20090053245A1, “Pharmacokinetics and Efficacy of Anti-Angiogenic Drugs and Drugs Treating Diseases of the Blood” (priority 2007, published 2009).
# Conditions: in vivo; cited from earlier work
substance,measurement,value
insulin,half-life,8 h
